The target of the data set is hIDE A479L (Homo sapiens, UniProt P14735, A479L).

The chains behind the UniProt entries cited, without tags or fusion partners. Residues count along the entry.
UniProt P14735, 42-1019 A479L limits assumed: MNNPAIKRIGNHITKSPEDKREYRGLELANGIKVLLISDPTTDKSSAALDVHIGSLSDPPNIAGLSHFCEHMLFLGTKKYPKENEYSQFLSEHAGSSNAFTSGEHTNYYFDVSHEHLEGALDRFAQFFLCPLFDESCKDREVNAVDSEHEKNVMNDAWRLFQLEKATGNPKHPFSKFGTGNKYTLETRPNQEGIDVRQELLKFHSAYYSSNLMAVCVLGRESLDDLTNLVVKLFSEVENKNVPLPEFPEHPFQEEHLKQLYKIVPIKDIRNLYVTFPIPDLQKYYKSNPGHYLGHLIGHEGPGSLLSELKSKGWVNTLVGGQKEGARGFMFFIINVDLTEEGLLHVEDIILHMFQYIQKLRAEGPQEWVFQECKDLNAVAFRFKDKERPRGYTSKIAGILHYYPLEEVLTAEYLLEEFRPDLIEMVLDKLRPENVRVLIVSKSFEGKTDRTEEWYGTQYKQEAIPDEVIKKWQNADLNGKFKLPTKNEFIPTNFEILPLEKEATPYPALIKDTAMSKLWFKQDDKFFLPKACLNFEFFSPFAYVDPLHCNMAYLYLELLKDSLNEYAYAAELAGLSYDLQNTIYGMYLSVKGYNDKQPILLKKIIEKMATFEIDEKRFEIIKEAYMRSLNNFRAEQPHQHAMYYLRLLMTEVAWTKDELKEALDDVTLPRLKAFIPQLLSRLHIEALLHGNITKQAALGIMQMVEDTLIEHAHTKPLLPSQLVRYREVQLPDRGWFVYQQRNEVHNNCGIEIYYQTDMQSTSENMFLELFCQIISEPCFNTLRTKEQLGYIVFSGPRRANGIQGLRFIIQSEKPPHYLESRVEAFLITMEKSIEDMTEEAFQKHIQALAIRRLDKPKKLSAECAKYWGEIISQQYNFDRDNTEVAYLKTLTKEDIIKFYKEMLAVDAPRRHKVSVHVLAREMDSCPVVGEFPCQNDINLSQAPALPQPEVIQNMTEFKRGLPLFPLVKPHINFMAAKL

This note sets out measurements from patent publication US20160282364A1, “ASSAY FOR INSULIN-DEGRADING ENZYME (IDE) INHIBITORS” (PRESIDENT AND FELLOWS OF HARVARD COLLEGE, priority 2013, published 2016).

In the case of `NC(=O)CC[C@@H]1NC(=O)/C=C/C(=O)N[C@H](C(N)=O)CCCCNC(=O)[C@@H](Cc2ccc(C(=O)c3ccccc3)cc2)NC(=O)[C@H](CC2CCCCC2)NC1=O`, the IC50 shift is over 600.
